# Patent US6521814B1, “Use of ligands for treatment of diseases responsive to retinoids” (Institut National de la Santa et de la Recherche Medicale, priority 1997, dated 2003)
# System: WT F9 cells
# Assay: Proliferation of F9 cells in monolayer culture (cell counting, [3H]thymidine incorporation, cell cycle FACS)
# Format: cell-based, murine
# Conditions: Mus musculus, F9, 144 h, 6 d, read-out: inhibition of growth relative to untreated control cells (cell counting)
# Description: Cells were plated in triplicate 3-cm culture wells (5×10^2 cells per well), and cell counting experiments were performed as previously described (Clifford, J., et al., EMBO J. 15:4142-4155 (1996)). [^3H]Thymidine incorporation assays were performed essentially as described (Clifford, J., et al., EMBO J. 15:4142-4155 (1996)), with the following modifications. Cells were cultured for 4 d in six replicate 3 -cm wells, in the presence or absence of 1 μM tRA, and three of the six wells were treated with 8 μCi/well [^3H]methylthymidine (20.0 Ci/mmol; Dupont-NEN, Boston, Mass.) for 2 h before harvesting. The cell cycle profile of WT and mutant cells was determined as previously described (Clifford, J., et al. EMBO J. 15:4142-4155 (1996)).
structure (smiles),measurement,value
"CC1=C(/C=C/C(C)=C/C=C/C(C)=C/C(=O)O)C(C)(C)CCC1 [tRA, all-trans retinoic acid]",inhibition at 1 µM,79%
